This is an account of results in US11193004B2, “Phosphoric ester preparations with reduced hygroscopicity” (LANXESS Deutschland GmbH, priority 2013, dated 2021).

The data set is described as follows: physchem. As to conditions: 25 °C, water.

One may read the solubility as the dissolved amount per volume that the medium holds. Consider `CC(C)COP(=O)(OCC(C)C)OCC(C)C` [TiBP, Triisobutyl phosphate], for which the solubility is 270 µg/mL.
